Assays:
SK-BR-3 cells = test: ADCC of trastuzumab against SK-BR-3 cells by human PBMCs pre-incubated in conditioned medium; format: cell-based; settings: PBMCs pre-incubated in conditioned medium 2 (KATO-III + IFN-γ)
Experimental: (§1) KATO-III cells (1.25×10^6 cells) were treated with 25 ng/mL recombinant human IFN-γ. […] Three days later, cells and supernatants were separated by centrifugation. The supernatants were used as conditioned medium. The conditioned medium was used for incubation of human PBMCs or NK cells (section 2.4.2), and measurement of Kyn and Trp (section 2.4.4).
(§2) NK cells were isolated from human PBMCs using NK isolation kit (Miltenyi Biotec, Cat. No. 130-092-657) and autoMACS instrument. Human PBMCs or NK cells were cultured in the conditioned medium (section 2.4.1) in a CO2 incubator. After 7 days, cells were harvested and counted, and used as effector cells. […] The radioactivity was counted with a microplate scintillation counter (TopCount NXT, PerkinElmer).
(§3) The percentage of cytotoxicity was calculated according to the following formula: […]
(§4) E is the experimental released radioactivity (cpm), S is the mean of spontaneous released radioactivity (cpm) by adding the assay medium instead of effector cells and antibody, and M is the mean of maximum released radioactivity (cpm) by adding 10 vol % Triton™ X-100 (Sigma-Aldrich, Cat. No. T9284-100ML) instead of effector cells and antibody. […]

A431 cells = test: ADCC of cetuximab against A431 cells by human PBMCs pre-incubated in conditioned medium; format: cell-based; settings: PBMCs pre-incubated in conditioned medium 2 (KATO-III + IFN-γ)
Experimental: as §1, §2, §3, §4

Row | Substance | ADCC against SK-BR-3 cells (SK-BR-3 cells) | ADCC against A431 cells (A431 cells)
1 | trastuzumab: recombinant humanized anti-HER2 antibody [reference compound] | attenuated | 
2 | cetuximab: monoclonal antibody which binds to EGFR [reference compound] |  | attenuated
